Results as given in ChEMBL document CHEMBL2407068, “Tropolones as lead-like natural products: the development of potent and selective histone deacetylase inhibitors” (ACS Med Chem Lett, 2013).

Amino acid sequences for entries named in this document (tags omitted). A change or cut given only in a name is not applied to a line headed by its entry.
UniProt Q9UQL6: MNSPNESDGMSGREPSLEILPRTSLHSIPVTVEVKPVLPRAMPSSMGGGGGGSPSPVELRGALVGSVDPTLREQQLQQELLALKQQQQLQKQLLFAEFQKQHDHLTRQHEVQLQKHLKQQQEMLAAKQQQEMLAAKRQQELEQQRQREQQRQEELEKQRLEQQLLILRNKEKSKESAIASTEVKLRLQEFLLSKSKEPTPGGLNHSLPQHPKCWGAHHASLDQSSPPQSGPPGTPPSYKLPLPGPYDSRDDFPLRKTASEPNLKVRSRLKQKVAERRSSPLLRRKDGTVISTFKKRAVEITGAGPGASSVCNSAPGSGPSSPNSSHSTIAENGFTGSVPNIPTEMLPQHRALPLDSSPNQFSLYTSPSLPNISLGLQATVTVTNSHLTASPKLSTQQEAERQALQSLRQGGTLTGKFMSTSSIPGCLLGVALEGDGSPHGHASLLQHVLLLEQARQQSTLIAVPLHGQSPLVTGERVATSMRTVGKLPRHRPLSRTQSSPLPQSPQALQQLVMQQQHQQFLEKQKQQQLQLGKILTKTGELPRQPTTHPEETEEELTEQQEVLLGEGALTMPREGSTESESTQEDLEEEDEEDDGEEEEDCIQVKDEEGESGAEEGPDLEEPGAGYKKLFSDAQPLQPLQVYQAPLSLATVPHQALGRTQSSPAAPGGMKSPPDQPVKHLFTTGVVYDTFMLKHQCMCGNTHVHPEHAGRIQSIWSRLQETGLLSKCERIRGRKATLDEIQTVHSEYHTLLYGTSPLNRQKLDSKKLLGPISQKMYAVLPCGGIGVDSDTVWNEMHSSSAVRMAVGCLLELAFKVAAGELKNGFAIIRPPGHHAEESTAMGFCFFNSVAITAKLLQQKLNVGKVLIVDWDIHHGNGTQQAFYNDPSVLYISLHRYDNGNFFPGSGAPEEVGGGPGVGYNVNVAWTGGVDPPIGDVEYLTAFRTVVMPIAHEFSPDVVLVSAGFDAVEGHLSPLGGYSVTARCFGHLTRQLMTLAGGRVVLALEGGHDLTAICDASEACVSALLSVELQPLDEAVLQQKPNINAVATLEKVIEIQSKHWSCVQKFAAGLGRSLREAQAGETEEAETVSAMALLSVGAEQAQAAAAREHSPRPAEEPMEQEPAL

Biological target: Histone deacetylase 5 (Homo sapiens, UniProt Q9UQL6)
Assay: Inhibition of human recombinant HDAC5 by Michaelis-Menten equation analysis

Ki: 4.12 µM
Compound: CC(/C=C/C(=O)NO)=C\[C@@H](C)C(=O)c1ccc(N(C)C)cc1 [TRICHOSTATIN]
